100 compounds from PubChem BioAssay AID504414 (Broad Institute, 2011) can be followed below.

Only a part is listed here, and it is no random draw. The source made the active and inactive calls.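 How the source made its calls: active means highest replicate inhibition of at least 40%; inactive means the rest.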

The inhibition is the relative decrease from the control value, in per cent.

This assay has as its target Golgi-associated PDZ and coiled-coil motif-containing protein (Homo sapiens) (UniProt Q9HD26). Briefly: CAL PDZ peptide-binding inhibitors, primary screen, biochemical, fluorescence polarization, Cer-tagged CAL PDZ, HTS (AID 504414).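 Further: plate controls were DMSO neutral control wells for no effect and unlabeled competitor peptide control wells for full effect.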 The following applies: purified CAL PDZ, TMR-peptide fluorescence polarization, 1 h; at 20 µM; hits give high values. For orientation: Polarisation of emitted light reports the rotation of a fluorescent probe.
For `Cc1ccccc1CN(C)C(=O)COC(=O)C(O)(c1ccccc1)c1ccccc1`, the inhibition was inactive: 0.0319%.

Turning to `C[C@H]1OP(=O)(Oc2ccccc2)C[C@@H]2O[C@@H]21` (stereo not given in full), the inhibition was inactive: -0.581%. As for `C[C@@H]1C=CCP(=O)(Oc2ccccc2)O1` (stereo not given in full), the inhibition is inactive: 0.829%. Next, `CC(=O)c1ccc(N2CC2c2ccncc2)cc1` (stereo not given): inactive: -3.03%.

Consider `N#C/C(=C\c1ccc(N(CCBr)CCBr)cc1)C(N)=O`, for which the inhibition was inactive: -1%. In the case of `COC(=O)C1(C)COP(=O)(NCc2ccccc2)OC1` (stereo not given), the inhibition was inactive: -0.866%. As for `CC(=O)Nc1ccc([As](=O)(O)O)c(O)c1`, the inhibition was inactive: -1.7%. As for `CC(=O)Nc1ccc(Oc2c([N+](=O)[O-])cc([N+](=O)[O-])cc2[N+](=O)[O-])cc1`, the inhibition is inactive: 0.16%. Then `O=P1(Nc2nc3ccc(Cl)cc3s2)COc2ccccc2O1` (stereo not given), with inactive: 0.381%. On to `CCOc1ccc(C2=NCC(CBr)S2)cc1` (stereo not given), for which the inhibition is inactive: -1.03%. `CC(C)(C)C(=O)NC(Sc1ccccc1)C(Cl)(Cl)Cl` (stereo not given): the inhibition is inactive: -0.273%. Consider `CCc1cc(O)c([N+](=O)[O-])c(C)c1[N+](=O)[O-]`, for which the inhibition was inactive: 0.093%. `O=C(OC1CN2CCC1CC2)c1ccccc1` (stereo not given): the inhibition was inactive: -0.704%. For `CCC(=O)N1C2C3N(C(=O)CC)C1C1N(C(=O)CC)C(C(N1C(=O)CC)N3C(=O)CC)N2C(=O)CC`, the inhibition is inactive: -0.536%. Next, `COC(=O)c1cc2c(s1)N=C(c1ccccc1)N(C)P2(=O)N1CCOCC1` (stereo not given): inactive: -1.07%. As to `Cc1ccc(OP(=O)(Nc2ccccn2)Oc2ccc(C)cc2)cc1`, the inhibition was inactive: -0.409%. Turning to `CC(=O)NC(SC(=S)N(CC(C)C)CC(C)C)C(Cl)(Cl)Cl` (stereo not given), the inhibition is inactive: -0.215%.

Regarding `CC(NC(=O)COC(=O)C(O)(c1ccccc1)c1ccccc1)c1ccccc1` (stereo not given), the inhibition is inactive: -0.364%. `Cc1ccccc1OP(=O)(Nc1ccccn1)Oc1ccccc1C`: the inhibition is inactive: -0.556%. As to `O=c1c2cc([N+](=O)[O-])ccc2[nH]c2c([N+](=O)[O-])cc([N+](=O)[O-])cc12`, the inhibition is inactive: 0.149%. Regarding `CN(C)C(=O)Oc1noc2ccccc12`, the inhibition is inactive: 0.698%. Turning to `c1ccc(-c2nn[nH]n2)c(-c2nn[nH]n2)c1`, the inhibition was inactive: 0.031%. As to `Cc1ccc(NP(=O)(Oc2cccc(C)c2)Oc2cccc(C)c2)nc1`, the inhibition was inactive: -3.09%. Then `CCNC(=S)/N=C(\N)N[N+](=O)[O-]`, with inactive: -0.279%; and `O=P1(N(CCCl)CCCl)OCCC2CCCCN21` (stereo not given), with inactive: -1.14%.

Regarding `O=[As](O)(c1ccccc1)c1ccc(O)cc1`, the inhibition is inactive: 1.42%.

As to `O=[N+]([O-])c1ncn(CCn2cnc([N+](=O)[O-])n2)n1`, the inhibition is inactive: 0.192%. Regarding `CC(=O)NC(SC(=S)N(C)C)C(Cl)(Cl)Cl` (stereo not given), the inhibition is inactive: -0.279%.

For the compound `O=[N+]([O-])c1ccc(O)c(/C=N/Nc2ccc([N+](=O)[O-])cc2[N+](=O)[O-])c1`, the inhibition is inactive: -0.721%.

As for `O=C(OC1CN2CCC1CC2)c1cccc(Cl)c1` (stereo not given), the inhibition is inactive: -0.275%. Next, `C(Cc1nn[nH]n1)Cc1nn[nH]n1`: inactive: -0.233%; `Nc1ccc([As](=O)(O)c2ccc([N+](=O)[O-])cc2)cc1`: inactive: -3.12%; `CN(C)C1(CNC(=O)c2ccc(Cl)c(S(N)(=O)=O)c2)CCCCC1`: inactive: -0.848%. On to `O=P(Nc1ccccn1)(c1ccc(Br)cc1)c1ccc(Br)cc1`, for which the inhibition is inactive: -0.443%. As to `COc1ccc(N)c([N+](=O)[O-])c1[N+](=O)[O-]`, the inhibition was inactive: 0.162%. With `O=P(Nc1nc2ccccc2s1)(c1ccccc1)c1ccccc1`, the inhibition is inactive: -2.54%.

As for `C[C@H]1OP(=O)(Oc2ccccc2)[C@H](O)[C@H](O)[C@H]1N=[N+]=[N-]` (stereo not given in full), the inhibition was inactive: -0.862%. In the case of `O=P(Nc1nccs1)(c1ccccc1)c1ccccc1`, the inhibition is inactive: -0.899%. Next, `CC(C)C(=O)NC(Sc1ccccc1)C(Cl)(Cl)Cl` (stereo not given): inactive: 0.00673%; `c1nnnn1CCn1cnnn1`: inactive: -0.77%; `CCN(/C(=N/P(=O)(N1CCOCC1)N1CCOCC1)N1CCOCC1)c1ccc(OC)cc1`: inactive: -2.76%. Then `Nc1ccc([As](=O)(O)c2ccc(N)cc2)cc1`, with inactive: -0.978%. Then `C[N+]1=C2C=CC=CC=C2SC12C([N+](=O)[O-])=CC([N+](=O)[O-])=C[C-]2[N+](=O)[O-]` (stereo not given), with inactive: 0.111%; and `CC1CCN(C(=O)Oc2c(Cl)cc(Cl)c3cccnc23)CC1`, with inactive: -1%. As for `CC(C)=N/N=C(\N)N[N+](=O)[O-]`, the inhibition was inactive: 0.564%. For the compound `CN(C)C(=O)OCCc1n(C)cc[n+]1C`, the inhibition was inactive: -1.7%. Turning to `COc1ccc(C2=NCC(CBr)S2)cc1` (stereo not given), the inhibition is inactive: -0.0786%. Regarding `Cc1ccc(NP(=O)(Oc2ccccc2)Oc2ccccc2)nc1`, the inhibition was inactive: -0.216%. For `O=[N+]([O-])c1cc([N+](=O)[O-])c(CCNc2ccccc2)c([N+](=O)[O-])c1`, the inhibition is inactive: -0.559%. In the case of `CCc1nc2c(n1)c1c(non1O)c1c2no[n+]1[O-]`, the inhibition is inactive: -2.19%. Then `O=[N+]([O-])c1cccc2n[nH]nc12`, with inactive: 0.767%; and `O=[N+]([O-])c1ncn(CCn2ncnc2[N+](=O)[O-])n1`, with inactive: -0.916%; and `CC(C)(C)C(=O)NC(Sc1ccncn1)C(Cl)(Cl)Cl` (stereo not given), with inactive: -1.8%. Then `O=C(O)CNc1ccc([As](=O)(O)O)cc1`, with inactive: -1.15%; and `COC(=O)C1(C)COP(=O)(Nc2ccccc2)OC1` (stereo not given), with inactive: -0.429%.

With `O=[N+]([O-])c1cccc(NC2=NCC(CBr)S2)c1` (stereo not given), the inhibition is inactive: 0.43%. As for `O=P1(N(CCCl)CCCl)OCCCS1` (stereo not given), the inhibition was inactive: -0.315%. As to `O=C(Nc1cc([As](=O)(O)O)ccc1O)c1ccccc1`, the inhibition was inactive: 0.284%. As to `Nc1cccc2ccc([As](=O)(O)O)cc12`, the inhibition is inactive: -2.12%. Consider `CCN(N=Nc1nonc1N)c1nonc1N`, for which the inhibition was inactive: -0.924%. As to `O=P(Nc1nc2ccc(Cl)cc2s1)(c1ccccc1)c1ccccc1`, the inhibition was inactive: -2.27%.

For `CC(=O)Nc1ccc([As](=O)(O)O)cc1`, the inhibition was inactive: -4.11%. Turning to `O=C(O)c1ccccc1[As](=O)(O)O`, the inhibition is inactive: -1.59%. Take `CCCC1OP(N)(=O)OCC1CC` (stereo not given): the inhibition is inactive: -0.262%.

`Cc1cc(SC(NC(=O)c2ccc(F)cc2)C(Cl)(Cl)Cl)ncn1` (stereo not given): the inhibition was inactive: -0.593%.

`CCOP(=O)(Nc1ccccc1)OCC`: the inhibition was inactive: -0.0186%. As for `CN(C(=O)Cc1ccc(Cl)c(Cl)c1)[C@H]1CCCC[C@@H]1N1CCCC1`, the inhibition was inactive: 0.118%. Then `Cc1ccc(NP(=O)(Oc2ccccc2F)Oc2ccccc2F)nc1`, with inactive: 1.28%; and `Oc1ccccc1CNc1ccccn1`, with inactive: -1.66%; and `O=C(NC(Sc1ccncn1)C(Cl)(Cl)Cl)c1ccccc1` (stereo not given), with inactive: -0.0934%.

Consider `Nc1cc(N)c2nonc2c1[N+](=O)[O-]`, for which the inhibition is inactive: 0.265%. Regarding `CC(C)CC(=O)NC(Sc1ccc(Cl)cc1)C(Cl)(Cl)Cl` (stereo not given), the inhibition was inactive: -1.66%.

Regarding `CN(C(=O)Cc1ccc(Cl)c(Cl)c1)[C@H]1CCCC[C@H]1N1CCCC1`, the inhibition was inactive: 0.804%. Regarding `Cc1ccc(N/C(=N/P(=O)(N2CCOCC2)N2CCOCC2)N2CCOCC2)cc1`, the inhibition was inactive: -1.84%. Consider `NC(=O)c1cc([N+](=O)[O-])cc([N+](=O)[O-])c1N`, for which the inhibition is inactive: -4.62%. Then `CN1CCCC(OC(=O)C(c2ccccc2)c2ccccc2)C1` (stereo not given), with inactive: 0.307%. Take `Clc1ccc(Cl)c(NC2=NCC(CBr)S2)c1` (stereo not given): the inhibition is inactive: -0.822%. For the compound `COc1ccccc1OP(=O)(Nc1ccc(C)cn1)Oc1ccccc1OC`, the inhibition was inactive: 0.667%. Then `O=[N+]([O-])c1cc(Oc2ccc([N+](=O)[O-])cc2C(F)(F)F)cc([N+](=O)[O-])c1`, with inactive: 0.0447%. As for `COc1ccc(N/C(=N/P(=O)(N2CCOCC2)N2CCOCC2)N2CCOCC2)cc1`, the inhibition is inactive: -0.415%. Turning to `Cc1c2c(nc3ccccc13)SC(C(Cl)Cl)C2` (stereo not given), the inhibition was inactive: -1.47%.

For the compound `Cc1cc(=O)[nH]c(N[N+](=O)[O-])n1`, the inhibition was inactive: -2.63%. On to `O=P1(N(CCCl)CCCl)OCCCN1CCCl` (stereo not given), for which the inhibition is inactive: -0.62%. Turning to `O=P1(N(CCCl)CCCl)Nc2ccccc2N1`, the inhibition was inactive: 0.544%. As for `COc1ccc2nc(NP(=O)(c3ccccc3)c3ccccc3)sc2c1`, the inhibition is inactive: -0.737%. Next, `COc1cc(I)ccc1[As](=O)(O)O`: inactive: -0.528%. Regarding `ClCCSc1nnc(-c2cccnc2)o1`, the inhibition was inactive: -0.303%. For `COC(=O)C1(C)COP(=O)(N2CCCCCC2)OC1` (stereo not given), the inhibition was inactive: -0.875%. As to `CC(C)c1ccc(OP(=O)(Nc2ccccn2)Oc2ccccc2F)cc1` (stereo not given), the inhibition was inactive: -1.03%.

`CC(C)NC(=O)NP(=O)(Oc1ccccc1)Oc1ccccc1`: the inhibition was inactive: -0.31%. In the case of `O=C(OC1CN2CCC1CC2)c1cccc2[nH]cnc12` (stereo not given), the inhibition is inactive: 0.863%. For `CCN(CC)C(=S)SC(NC=O)C(Cl)(Cl)Cl` (stereo not given), the inhibition is inactive: -0.672%. As for `O=[N+]([O-])c1cc([N+](=O)[O-])c(-c2ccn[nH]2)s1`, the inhibition is inactive: -0.797%. On to `C[As](=O)(O)c1cccc(C(=O)O)c1`, for which the inhibition was inactive: -0.653%.

With `O=[As](O)(c1ccc(O)cc1)c1ccccc1O`, the inhibition was inactive: -0.875%.

With `O=[N+]([O-])c1ccc(-c2cc([N+](=O)[O-])c(O)c([N+](=O)[O-])c2)cc1`, the inhibition is inactive: -0.507%. Next, `COc1cc(C(=O)NCC2(N3CCOCC3)CCCCC2)ccc1OCC(C)C`: inactive: -0.115%; `Cc1ccc(OP(=O)(Nc2ccc([N+](=O)[O-])cn2)Oc2ccc(C)cc2)cc1`: inactive: -0.783%. As to `Cc1ccc2nc3c(c(C)c2c1)CC(C(Cl)Cl)S3` (stereo not given), the inhibition is inactive: -1.09%.

On to `CCOC(=O)Nc1cccc([As](=O)(O)O)c1`, for which the inhibition was inactive: -0.515%.
